# Cneo AK release: Cryptococcus neoformans lysis via adenylate kinase release; AID 651654; actives 0.2% (n = 360,000); C. neoformans lysis, adenylate kinase release luminescence, 4 h; normalised: neutral wells 0, clomiphene wells 100; lysis activity, % at 15 µM;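 active means mean lysis activity across replicates of at least 80%, whatever share of replicates individually reach that level; inactive means mean lysis activity below 80%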
#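 Assay system: C. neoformans cells. Amount: yeast cell density of 5 × 10^6 cells/mL. Technique: AK luminescence. Buffer or medium: YPD. Times: static 4 h at 37 °C with compound, 1 h detection. Dosing: single-point compound dose. Read-out: lysis from increased AK signal.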
# miR122 inh: blocks miR-122 activity in Huh7 sensor cells | actives 0.3% (n = 340,000) | Huh7 miR-122 Renilla luciferase sensor, 48 h; neutral wells = 0, positive control = 100 | activation (reporter increase), % at 12.5 µM | AID 602342;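 active means mean replicate activation score at least 90 and every replicate individually at or above 90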;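 further: higher luciferase means less miR-122 activity so hits act as miR-122 inhibitors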
# PGC1a acetyl inh: modulators of PGC1a acetylation; U2OS PGC1a acetylation, AlphaScreen anti-acetyl-lysine; with virally co-expressed GCN5 acetyltransferase; AID 651687; actives 0.17% (n = 350,000); inhibition, % at 15.6 µM;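 active means every replicate shows inhibition of at least 40%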
# FN deposit inh: fibronectin deposition inhibition; AH1F fibroblasts, Alexa488-fibronectin deposition fluorescence, overnight; inhibition, % at 12.6 µM; actives 0.086% (n = 350,000);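 active means mean inhibition across replicates of 30% or more, regardless of how many single replicates reach that level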
#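 Test system: AH1F fibroblast monolayer depositing Alexa488-labelled fibronectin into matrix. Input: 10000 cells per well. Technique: fluorescence, ex 485 nm, em 525 nm. Buffer or medium: DMEM plus 2% serum, read in PBS. Timing: 1 h cell adhesion before compound, then overnight fibronectin incubation. Compound: single dose, pinned. Read-out basis: inhibition from reduced deposited-fibronectin fluorescence.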
# HIV Env fusion: blocks HIV Env-driven cell-cell fusion. HeLa-JRFL Env/CEM21 cell fusion, luciferase. AID 651610. actives 1.1% (n = 360,000). inhibition, % at 12.3 µM;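 active means mean replicate inhibition score of at least 50 and every replicate individually at or above 50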
# UUG fidelity: yeast start codon fidelity modulation | S. cerevisiae UUG-firefly luciferase reporter, luminescence/redox ratio | activity score, % at 18.7 µM | 0.13% of 350,000 active | AID 602363;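 active means replicate mean at a twofold rise or more, about +100% in these data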;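 further: firefly luciferase made from a UUG start codon reports start codon fidelity; reporter light over untreated wells divided by growth signal over untreated wells; some hits fall short of that in this replicate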
# A number is an active result; i = inactive; nt = no result given; [ ] = dose if it differs, or a comment. A selection: hits, their analogues and other compounds. The true share with any hit is near 1.5%.
SMILES,Cneo AK release,miR122 inh,PGC1a acetyl inh,FN deposit inh,HIV Env fusion,UUG fidelity
CSCCC(NC(=O)c1ccccc1Br)C(=O)NC(C)CCc1ccccc1 (stereo not given),i,nt,i,nt,64,i
Cc1ccc(P(=O)(c2ccc(C)cc2)[C@@H](NC(c2ccccc2)c2ccccc2)c2ccccc2)cc1,nt,nt,nt,i,i,nt
Cc1ccccc1[C@H](NC1c2ccccc2C=Cc2ccccc21)P(=O)(c1ccccc1)c1ccccc1,nt,nt,nt,i,86,nt
CCC(C)(C)NC(=O)C(c1ccc(C)cc1)N(CC1CCCO1)C(=O)c1csnn1 (stereo not given),i,nt,nt,i,72,i
C[C@H]1CN([C@@H](C)CO)C(=O)Cc2cc(NC(=O)Nc3ccc(F)cc3)ccc2O[C@@H]1CN(C)S(=O)(=O)c1ccc(F)cc1,i,i,i,nt,i,i
C[C@@H]1CN([C@@H](C)CO)C(=O)c2cccc(NS(C)(=O)=O)c2O[C@@H]1CN(C)C(=O)NC1CCCCC1,i,i,i,nt,nt,i
O=C(Nc1ccccc1N1CCCCC1)c1cccc([N+](=O)[O-])c1,nt,nt,i,i,i,nt
O=C(Nc1cc(C(F)(F)F)ccc1N1CCCCC1)c1cccc([N+](=O)[O-])c1,i,i,i,nt,98,i
Cc1cc(C)cc(C(O)c2ncc(-c3ccccc3F)[nH]2)c1 (stereo not given),i,110,i,i,i,i
Cc1cc(C(O)c2ncc(-c3ccccc3F)[nH]2)ccc1F (stereo not given),i,136,nt,i,i,i
COc1cccc(C(O)c2ncc(-c3cccc(F)c3)[nH]2)c1 (stereo not given),i,114,i,i,i,i
Cc1ccc(C(O)c2ncc(-c3cccc4ccccc34)[nH]2)cc1F (stereo not given),i,i,i,30,i,i
Cc1cc(C(O)c2ncc(-c3ccccc3Cl)[nH]2)ccc1F (stereo not given),i,i,nt,i,i,i
Cc1ccc(C(O)c2ncc(-c3ccccc3C)[nH]2)cc1F (stereo not given),i,i,i,i,i,i
C/C=C/c1cnc2c(c1)C(=O)N([C@H](C)CO)C[C@@H](C)[C@@H](CN(C)S(=O)(=O)c1ccc(OC)cc1)O2,i,i,i,nt,i,i
COc1ccc(N2C(=O)CC(NCc3ccc(F)cc3)C2=O)cc1 (stereo not given),i,i,i,nt,nt,i
CC(C)(C)NS(=O)(=O)c1ccc(NC(=S)NC(=O)C2CC2)cc1,i,196,i,i,i,i
O=C(NC(=S)Nc1ccc(Br)cc1)C1CCC1,146,i,i,i,i,i
Cc1c(C(=O)Nc2ccc(S(=O)(=O)N(C)C3CCN(C)CC3)cc2)oc2c(Cl)cccc12,i,nt,nt,nt,i,i
O=C(NCc1ccccc1)c1ccc(F)c(F)c1,nt,nt,nt,i,i,nt
CCN1C(=O)[C@H]2[C@@H](c3ccc(C)cc3)N3C(=O)N(c4cccc(Br)c4)C(=O)[C@@]3(CC(C)C)[C@H]2C1=O,i,i,i,i,104,i
CCN1C(=O)[C@H]2[C@@H](c3ccc(C)cc3)N3C(=O)N(c4ccc(C(F)(F)F)cc4)C(=O)[C@@]3(CC(C)C)[C@H]2C1=O,i,i,i,i,115,i
COc1ccc(C2C(C(N)=O)=C(C)Nc3nc(-c4cccc(Cl)c4)nn32)cc1OC (stereo not given),i,i,i,i,58,i
COc1ccc(C2C(C(N)=O)=C(C)Nc3nc(-c4ccccc4)nn32)cc1OC (stereo not given),i,nt,nt,i,i,i
COC(=O)c1c(NC(=O)CCC(=O)O)sc(Cc2ccccc2)c1C,i,i,i,i,i,i
SMILES,Cneo AK release,miR122 inh,PGC1a acetyl inh,FN deposit inh,HIV Env fusion,UUG fidelity
CC(=O)N(C)c1ccc(OCC(O)Cn2c(C)nc3ccccc32)cc1 (stereo not given),nt,nt,nt,i,i,nt
CC(=O)N(C)c1ccc(OCC(O)Cn2c3ccc(Cl)cc3c3cc(Cl)ccc32)cc1 (stereo not given),i,i,i,i,130,i
COCCn1c(=O)[nH]c2cc(C(=O)N3CCN(Cc4ccc5c(c4)OCO5)CC3)ccc2c1=O,i,i,i,i,i,i
COc1ccc(Cn2c(=O)[nH]c3cc(C(=O)N4CCN(Cc5ccccc5)CC4)ccc3c2=O)cc1,i,i,i,i,24,i
COCCn1c(=S)[nH]c2cc(C(=O)N3CCN(Cc4ccc5c(c4)OCO5)CC3)ccc2c1=O,i,i,nt,i,86,i
COCCn1c(=S)[nH]c2cc(C(=O)N3CCc4ccccc43)ccc2c1=O,nt,i,i,nt,80,nt
CCOC(=O)C1=C[C@@H](CC)N(S(=O)(=O)c2ccc(C)cc2)[C@H]1c1ccccc1,i,i,i,i,i,i
CCOC(=O)C1=C[C@@H](C2CCCC2)N(S(=O)(=O)c2ccc([N+](=O)[O-])cc2)[C@H]1c1ccccc1,i,i,i,i,55,i
CN(C)S(=O)(=O)c1cc(NC(=O)CN2CCN(c3ccc(O)cc3)CC2)ccc1Cl,nt,i,i,i,i,nt
CCNS(=O)(=O)c1ccc(NC(=S)N2CCc3ccccc32)cc1,i,i,nt,i,i,i
O=C(NCCc1ccccc1)[C@@H]1[C@@H](CO)[C@@H]2Cn3c(cccc3=O)[C@H]1N2C(=O)C1CCC1,102,i,nt,nt,nt,i
O=C(NCCc1ccccc1)[C@H]1[C@H](CO)[C@H]2Cn3c(cccc3=O)[C@@H]1N2C(=O)C1CCCC1,i,i,nt,nt,nt,i
O=C(NCCc1ccccc1)[C@H]1[C@H](CO)[C@H]2Cn3c(cccc3=O)[C@@H]1N2C(=O)C1CCC1,105,i,nt,nt,nt,i
CCCn1c(SC(C)C(=O)NC2CCCC(C)C2C)n[nH]c1=O (stereo not given),i,i,i,i,i,i
C=CCn1c(SCC(=O)NC2CC2)nnc1-c1cccs1,i,i,i,nt,i,i
O=C(/C=C/c1ccccc1)NC(NC(=S)Nc1cccc(Cl)c1)C(Cl)(Cl)Cl (stereo not given),i,i,i,nt,63,i
C[C@H](CO)N1C[C@H](C)[C@H](CN(C)S(=O)(=O)c2ccccc2)Oc2ccc(NC(=O)Cc3ccccc3)cc2CC1=O,i,i,i,nt,92[16.7 µM],i
C[C@H](CO)N1C[C@H](C)[C@H](CN(C)S(=O)(=O)c2ccccc2)Oc2ccc(NC(=O)Nc3ccccc3)cc2CC1=O,i,i,i,nt,80[16.7 µM],i
C[C@H](CO)N1C[C@H](C)[C@H](CN(C)S(=O)(=O)c2ccc(F)cc2)Oc2ccc(NC(=O)Nc3cccc4ccccc34)cc2CC1=O,i,i,i,nt,83[16.7 µM],i
C[C@H](CO)N1C[C@H](C)[C@H](CN(C)S(=O)(=O)c2ccc(F)cc2)Oc2ccc(NC(=O)Nc3ccccc3)cc2CC1=O,i,i,i,nt,55[16.7 µM],i

# Bioassay records (PubChem)
